IC50 data for one compound are collected here from ChEMBL document CHEMBL1141452, “Advances in development of dopaminergic aporphinoids” (J Med Chem, 2007).

Protein sequences, listed by entry. Tags and fused reporters are not part of them.
UniProt P61169, whole entry: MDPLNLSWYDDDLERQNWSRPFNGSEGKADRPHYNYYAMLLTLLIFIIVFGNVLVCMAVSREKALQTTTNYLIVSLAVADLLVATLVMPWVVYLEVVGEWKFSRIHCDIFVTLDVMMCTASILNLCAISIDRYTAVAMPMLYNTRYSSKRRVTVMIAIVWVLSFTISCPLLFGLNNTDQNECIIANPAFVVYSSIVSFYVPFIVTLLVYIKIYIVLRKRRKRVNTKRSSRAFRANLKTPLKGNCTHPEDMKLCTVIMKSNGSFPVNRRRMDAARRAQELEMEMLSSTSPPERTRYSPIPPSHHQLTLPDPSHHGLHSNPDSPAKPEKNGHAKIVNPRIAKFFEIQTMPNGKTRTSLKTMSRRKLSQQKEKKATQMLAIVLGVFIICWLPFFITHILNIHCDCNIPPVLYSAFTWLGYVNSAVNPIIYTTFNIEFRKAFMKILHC

The structures appear in SMILES notation.

The assay deals with D(2) dopamine receptor (Rattus norvegicus, UniProt P61169). The assay is described as follows: Displacement of [3H]raclopride from rat dopamine D2 receptor. For orientation: Loss of bound radioactivity is the signal in a displacement assay; it reports binding, not function.

For the compound `COc1cc2c3c(c1OC)-c1c(ccc(O)c1O)CC3N(C)CC2` (stereo unspecified) [SUAVEOLINE], the IC50 (as a rule, the concentration needed to halve the response being measured) came to 0.5 µM.
